Results from ChEMBL document CHEMBL5634198, “Structural Investigations of Phthalazinone Derivatives as Allosteric Inhibitors of Human DNA Methyltransferase 3A” (ACS Med Chem Lett, 2024).

Molecular target: DNA (cytosine-5)-methyltransferase 3A (Homo sapiens) (UniProt Q9Y6K1)
Test: Inhibition of DNMT3A (unknown origin) using [3H]-SAM as substrate incubated for 1 hr by scintillation counter analysis relative to (4aS,8aR)-4-(3-(4-(4-(2H-tetrazol-5-yl)phenoxy)butoxy)-4-methoxyphenyl)-2-cycloheptyl-4a,5,8,8a-tetrahydrophthalazin-1(2H)-one
Details: concentration not given here

Molecule `COc1ccc(C2=NN(C3CCCCCC3)C(=O)[C@@H]3CC=CC[C@H]23)cc1OCCCCOc1ccc(C#N)cc1` has an inhibition of over 4%.
